From patent US20220177841A1, “EX VIVO METHODS FOR PRODUCING A T CELL THERAPEUTIC AND RELATED COMPOSITIONS AND METHODS” (Myst Therapeutics LLC, priority 2019, published 2022)

Assays:
melanoma tumor fragments = assay: Expansion of tumor-derived cells by IL-2 concentration, melanoma; assay type: cell-based, human; conditions: 300 IU/mL versus 6000 IU/mL, 14 to 21 days
Experimental: For expansion from tumor fragments, an individual 1-8 mm tumor fragment, obtained as described in Example 1 from primary tumors of donor patients with CRC or melanoma, was placed in a well of a gas-permeable 24-well culture plate or a 6-well plate, and cultured in either RPMI containing 5% human serum or serum free OpTmizer medium with recombinant IL-2 supplemented at a concentration of 300 IU/mL or 6000 IU/mL. The media also contained gentamicin at 10 μg/ml, and a final concentration of 2.0 mM of a L-alanyl-L-glutamine dipeptide form of glutamine (GlutaMAX Supplement; Thermofisher). The cells were incubated for up to 31 days, such as typically 14 to 21 days, wherein 50% of cellular media was exchanged every other day beginning on the 5th day of culture.
For all conditions, cell counts were performed approximately every other day using the NC-200 Automated Cell Counter (Chemometec) and samples were collected for fluorescence-activated cell sorting (FACS). After completion of the expansion phase (e.g. day 14-31), cells were washed in PBS then cryopreserved in the presence of a cryoprotectant. Cryopreservation was carried out using CoolCell devices (Corning) or the VIA Freeze (GE Healthcare).
The effect of different IL-2 concentrations during the expansions from the different tumor types was compared. […]

[1] = test system: SCS obtained from CRC tumor fragments; assay: Expansion of tumor-derived cells by IL-2 concentration, CRC; assay type: cell-based, human; conditions: 300 IU/mL versus 6000 IU/mL, 14 to 21 days
Experimental: Single cell suspensions (SCSs) obtained by homogenization and enzyme digestion of primary tumors from donor patients with CRC or melanoma, as described in Example 1, were cultured in a conventional 6-well plate or a gas-permeable 24-well culture plate. Where possible, multiple conditions from each donor were initiated and averaged (error bars represent ±standard deviation). For 6-well plates, cells were seeded between 250,000 and 1,000,000 cells/mL and for gas-permeable 24-well plates cells were seeded between 5,000 and 750,000 cells/mL. In both cases, the cells were seeded in either RPMI containing 5% human serum or serum free OpTmizer medium with recombinant IL-2 supplemented at a concentration of IL-2 of 300 IU/mL or 6000 IU/mL. The media also contained gentamicin at 10 μg/ml and a final concentration of 2.0 mM of a L-alanyl-L-glutamine dipeptide form of glutamine (GlutaMAX Supplement; Thermofisher). The cells were incubated for up to 31 days, typically 14 to 21 days, wherein 50% of cellular media was exchanged every other day beginning on the 5th day of culture.
For all conditions, cell counts were performed approximately every other day using the NC-200 Automated Cell Counter (Chemometec) and samples were collected for fluorescence-activated cell sorting (FACS). […]

Question: For “IL-2: recombinant cytokine that supports T cell recovery and proliferation”, which “expansion of cells (total cell numbers, fold expansion), high versus low concentration of IL-2” value (melanoma tumor fragments) is on record?
Answer: Its value is “not observed to be necessary for cellular expansion”.

Question: And the “expansion of cells (total cell numbers, fold expansion), high versus low concentration of IL-2” value [1]?
Answer: The value was “not observed to be necessary for cellular expansion”.
